Assay results: patent EP0037781A1, “Phenyl alcoxy propanol amines, their preparation and their use as medicines” (PIERRE FABRE S.A., priority 1980, dated 1981)

Settings: water

Solubilités : Soluble dans l'eau: 10%
Substance: iso^pro^pylamino-3 (indanyl-2 oxy)-1 propanol-2 fumarate [Exemple 13]
